Literature values as cited in patent publication US20040132806A1, “Pravastatin pharmaceutical formulations and methods of their use” (priority 2002, published 2004).

Molecular target: T1, HMG-CoA reductase (Homo sapiens, UniProt P04035)
T1 sequence (P04035 1-888): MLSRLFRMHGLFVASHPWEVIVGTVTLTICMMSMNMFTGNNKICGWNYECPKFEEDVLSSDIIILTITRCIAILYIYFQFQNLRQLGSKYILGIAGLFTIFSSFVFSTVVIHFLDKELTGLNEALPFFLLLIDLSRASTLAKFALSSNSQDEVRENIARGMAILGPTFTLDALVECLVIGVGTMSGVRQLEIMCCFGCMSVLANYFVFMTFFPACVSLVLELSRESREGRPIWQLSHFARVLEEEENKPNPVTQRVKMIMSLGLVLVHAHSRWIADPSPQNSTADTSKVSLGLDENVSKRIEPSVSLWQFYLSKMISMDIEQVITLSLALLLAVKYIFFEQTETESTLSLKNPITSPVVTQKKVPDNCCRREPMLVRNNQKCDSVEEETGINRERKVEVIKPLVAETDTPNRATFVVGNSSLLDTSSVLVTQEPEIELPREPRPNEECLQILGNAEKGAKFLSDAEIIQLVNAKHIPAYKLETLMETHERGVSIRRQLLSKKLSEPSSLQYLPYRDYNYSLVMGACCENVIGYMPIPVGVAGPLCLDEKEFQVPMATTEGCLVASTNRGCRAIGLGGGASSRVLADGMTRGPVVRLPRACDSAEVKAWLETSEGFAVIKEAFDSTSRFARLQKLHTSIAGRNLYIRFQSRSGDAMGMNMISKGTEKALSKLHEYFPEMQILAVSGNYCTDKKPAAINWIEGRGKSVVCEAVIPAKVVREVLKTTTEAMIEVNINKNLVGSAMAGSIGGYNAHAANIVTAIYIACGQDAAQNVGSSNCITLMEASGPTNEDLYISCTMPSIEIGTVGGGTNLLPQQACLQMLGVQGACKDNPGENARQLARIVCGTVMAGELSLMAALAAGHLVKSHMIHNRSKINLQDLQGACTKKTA
Details: fraction of pravastatin's activity

- HMG-CoA reductase inhibitory activity relative to the parent compound: one-tenth to one-fortieth
SMILES: CCC(C)C(=O)O[C@H]1CC=CC2=C[C@H](O)[C@H](C)[C@H](CC[C@@H](O)C[C@@H](O)CC(=O)O)[C@H]21 (single isomer, unassigned) [3α-hydroxy isomeric metabolite, 3α-hydroxyisomer of pravastatin]
